One compound from patent publication US4681872A (priority 1985, dated 1987) can be followed below.

One assay has as its system Staph. aureus 45. The following applies: BHI agar, 35°-37° C., 20-24 hours.
Another assay deals with Staph. aureus 45 RAR 2. Put plainly: antimicrobial spectrum, agar dilution MIC. As to conditions: BHI agar, 35°-37° C., 20-24 hours. On the technique in general: In agar dilution, organisms are placed on agar that contains the substance at set levels.

As to `CCC1OC(=O)C(C)C(OC2CC(C)(OC)CC(C)O2)C(C)C(OC2OC(C)CC(N(C)C)C2O)C(C)(O)CC(C)C(=O)C(C)C2OC(=O)OC12C` (centres unmarked) [4"-deoxyerythromycin A 11,12-carbonate], the MIC result is “.1 µg/mL” against Staph. aureus 45 and “.2 µg/mL” in the assay with Staph. aureus 45 RAR 2.
